Laboratory results published in patent US20180228743A1, “COMPOUNDS AND METHODS OF PROMOTING MYELINATION” (Case Western Reserve University, priority 2016, published 2018).

Sequences of proteins named here, by UniProt entry; tags and fusion partners are left off. A change or cut given only in a name is not applied to a line headed by its entry.
UniProt P70245: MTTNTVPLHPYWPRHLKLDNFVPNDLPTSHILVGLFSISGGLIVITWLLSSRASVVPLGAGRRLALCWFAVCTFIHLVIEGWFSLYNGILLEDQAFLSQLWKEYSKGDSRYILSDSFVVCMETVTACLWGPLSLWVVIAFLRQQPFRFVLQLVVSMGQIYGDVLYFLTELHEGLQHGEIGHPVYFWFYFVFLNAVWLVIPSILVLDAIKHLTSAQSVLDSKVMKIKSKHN

Key:
EBP = EBP (Mus musculus, UniProt P70245); experiment: EBP enzymatic assay (GC/MS); assay type: biochemical; conditions: 10 μM, zymostenol 25 μM
EpiSC-derived OPCs = experiment: In vitro phenotypic screening of OPCs (MBP+ oligodendrocytes at 72 h); assay type: cell-based, mouse; conditions: ketoconazole 2.5 μM (maximally effective dose)
OPCs = experiment: GC/MS-based sterol profiling in OPCs; assay type: cell-based, mouse; conditions: 24 h treatment (siRNA 96 h)

Trans-U50488
inhibition of EBP enzymatic activity (EBP): clear inhibition | oligodendrocyte formation in combination with ketoconazole (EpiSC-derived OPCs): did not enhance differentiation above levels seen for ketoconazole alone | sterol levels / sterol intermediate accumulation in OPCs (OPCs): induced accumulation of zymostenol and zymosterol and decreased basal sterol levels
